# Bioassay records as filed in PubChem.
# In the library only some 3.7% were active in any assay of this set; here they are far more common.
# Nrf2 block: blocks Nrf2 signaling; A549 ARE-Fluc reporter, luciferase luminescence, 18-24 h; Potency, µM (series often up to 46 µM), without a hit: at the highest dose activity change, negative = inhibition, actives largely listed as inhibitors; hit rate 2.1% among 360,000; AID 504444; note: potency is the fitted concentration of half-maximal effect; % is set by controls: 0 for no effect and ±100 for the full control effect; nearly all actives have a fitted effect of over 60% in size
#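 Cells were seeded and rested 2 h, then exposed to compounds for 18-24 h. CellTiter-Fluor was read first as a viability measure. BugLite was added 15 min before the final luminescent read of ARE-luciferase activity in A549 cells.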
# ClpP mod: qHTS Assay for Activators of ClpP; ATP-dependent Clp protease proteolytic subunit (Bacillus subtilis (strain 168)), P80244; purified B. subtilis ClpP, FRET peptide cleavage, 20 min; Potency, µM (titrated, usually from 57.5 µM), for the others: top-dose activity change, negative = active; hit rate 1.9% among 340,000; AID 651965, 2013; active = well fitted falling curve with a large enough effect; inconclusive = small, poorly fitted or top-dose-only effect; inactive = no such curve, though single readings can be large or run the other way; note: potency is the fitted concentration of half-maximal effect; the source files actives as falling curves though it sought activators and does not explain the sign; nearly all actives have a fitted effect of over 65% in size
#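 ClpP 10 microg/mL final, pH 8 Tris/KCl buffer with BSA, glycerol, Tween-20; compound pinned in; FRET-FV substrate; RT 20 min; Ex320/Em430; ΔFRET vs ADEP 5.8 microM, DMSO, no enzyme.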
# TCR activator: T cell receptor activation; primary human leukocytes, anti-CD3, IL-2 HTRF, 48 h; 330,000 tested, under 10 active; Potency, µM (titrated, usually from 9.22 µM), inactives show at the top dose activation of IL-2 secretion, actives largely listed as activators; note: % of control where 0% means no effect
#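 Human primary leukocytes + a-CD3 beads + cpd, 48 hr; IL-2 in supernatant by HTRF (ex 320nm / em 665nm). No co-stimulatory signal supplied.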
# Nrf2 activator: activators of Nrf2 (ARE) signaling; AREc32 ARE-luciferase reporter (MCF7-derived line), luminescence, 24 h; Potency, µM (doses to about 46.1 µM), without a hit: at the top dose activation, hits mostly activators; hit rate 0.31% among 410,000; note: potency is the fitted concentration of half-maximal effect; % of control where 0% means no effect; nearly all actives have a fitted effect of over 65% in size
#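 ARE activation measured as luciferase luminescence (Steady-Glo, 30 min RT) in AREc32_Fluc cells after 24 hr compound exposure at 37 deg C, 5% CO2; cells seeded overnight at 1000/well in OPTI-MEM, 5% FBS.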
# miR-21 reporter: raises the signal of a miR-21 reporter; AID 2288; 340,000 tested, under 10 active; Potency, µM (doses to about 38.3 µM), inactives show at the top dose reporter change, positive = more light; HeLa miR-21 FLuc reporter, luciferase, 48 h; active = well fitted rising curve with a large enough effect; inconclusive = small, poorly fitted or top-dose-only effect; inactive = no such curve, though single readings can be large or run the other way;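 note: % of control where 0% means no effect; miR-21 action dims this reporter so a rising signal means less miR-21 action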
#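 HeLa cells endogenously expressing miR-21, stably carrying CMV-driven firefly luciferase with a downstream miR-21 binding site, 2000 cells/well. Titrations up to approximately 40 uM, 48 hours; luciferase luminescence read.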
# A549 tox-1: kills or reduces viability of A549 cells in Nrf2 counter-screen; A549 ARE-Fluc cells, CellTiter-Fluor viability, 18-24 h; Potency, µM (top dose mostly 46 µM), inactives show top-dose activity change, negative = cytotoxicity, hits mostly inhibitors; hit rate 0.16% among 390,000; AID 504648; note: potency is the fitted concentration of half-maximal effect; % is set by controls: 0 for no effect and ±100 for the full control effect
#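 Cytotoxicity counterscreen: CellTiter-Fluor fluorescence was measured in A549 ARE_Fluc cells after 18-24 h of compound exposure in a concentration series. The subsequent BugLite luminescent read reports ARE-luciferase activity.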
# FLuc enzyme inh: firefly luciferase inhibition, Nrf2 hit validation | hit rate 4% among 1,400 | shares compounds with Nrf2 block | Potency, µM (doses to about 57.5 µM), inactives show at the highest dose activity change, negative = inhibition, most hits filed as inhibitors | purified firefly luciferase, luminescence inhibition; note: potency is the fitted concentration of half-maximal effect; % is set by controls: 0 for no effect and ±100 for the full control effect; nearly all actives have a fitted effect of over 65% in size
# A549 tox-2: A549 cytotoxicity, Nrf2 inhibitor counterscreen; shares compounds with Nrf2 block; A549 ARE-Fluc cells, cytotoxicity counterscreen; Potency, µM (highest dose often 46.1 µM), inactives show at the highest dose activity change, negative = cytotoxicity, actives largely listed as inhibitors; hit rate 2% among 1,400; AID 720523;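 note: potency is the fitted concentration of half-maximal effect; cells exposed to compounds for 18 to 24 hours; % is set by controls: 0 for no effect and ±100 for the full control effect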
# Nrf2 ARE inh: confirmation of Nrf2 inhibitors in A549 ARE reporter cells. A549 ARE-firefly luciferase reporter, luminescence. AID 720524. hit rate 74% among 1,400. Potency, µM (titrated, usually from 46.1 µM), for the others: at the highest dose activity change, negative = inhibition, usual class: inhibitors. shares compounds with Nrf2 block; note: potency is the fitted concentration of half-maximal effect; % is set by controls: 0 for no effect and ±100 for the full control effect; nearly all actives have a fitted effect of over 65% in size
# An asterisk follows results filed as active; ? = inconclusive; / = no result given; [ ] = another dose, or the depositor's remark. Unless noted, calls come from the whole dose curve; as a rule, active = well fitted curve in the direction sought with a large enough effect; inconclusive = small, poorly fitted or top-dose-only effect, or another doubt; inactive = no such curve, though single readings can be large; an effect the other way counts as inactive or inconclusive.
SMILES,Nrf2 block,ClpP mod,TCR activator,Nrf2 activator,miR-21 reporter,A549 tox-1,FLuc enzyme inh,A549 tox-2,Nrf2 ARE inh
COc1ccc(NC(=O)CCC(=O)c2cccs2)cc1S(=O)(=O)Nc1ccc(Cl)cc1,8.0%,-1.8%,-4.5%[46.1 µM],-0.2%,20.1%,-1.5%,/,/,/
COc1ccccc1NS(=O)(=O)c1cc(NC(=O)CCC(=O)c2cccs2)ccc1Cl,8.2µM*,-0.8%,-1.8%[46.1 µM],0.1%,10.2%,-17.2%,-4.9%,-0.8%,?
CC1=C(C(=O)OC2CCCCC2)C(c2cccnc2)n2nnnc2N1 (centres undefined),8.2µM*,-1.6%,-1.3%[46.1 µM],-0.7%,-15.6%,-14.1%,3.9%,-16.2%,?
COC(=O)C1=C(C)Nc2nnnn2C1c1cccnc1 (centres undefined),/,14.1%,1.1%[46.1 µM],0.2%,-4.1%,12.1%,/,/,/
CC(C)N1CCC(C)(C(=O)Nc2cccc3c2CCCC3)C1 (centres undefined),/,0.1%,/,-0.8%,/,/,/,/,/
CCOc1ccc(NC(=O)c2ccc(CN3CCc4ccccc4C3)cc2)cc1,?,/,0.7%,-0.1%[9.22 µM],8.7%,-3.3%,/,/,/
N#CCc1ccc(NC(=O)c2ccc(CN3CCc4ccccc4C3)cc2)cc1,5.17µM*,16.8%,-2.9%,4.1%,13.5%,-0.3%,-15.0%,7.0%,?
O=C(Nc1ccccc1)c1ccc(S(=O)(=O)N2CCOCC2)cc1,?,-0.1%,/,0.2%,-11.7%,6.8%,/,/,/
O=C(Nc1ccc(S(=O)(=O)N2CCOCC2)cc1)c1ccc(CN2CCc3ccccc3C2)cc1,0.82µM*,-17.5%,0.1%,2.5%,?,?,-1.0%,1.7%,1.64µM*
O=C(Nc1ccc(S(=O)(=O)N2CCCC2)cc1)c1ccc(CN2CCc3ccccc3C2)cc1,1.46µM*,-22.1%,-2.9%[46.1 µM],5.4%,?,-6.9%,-0.1%,-15.8%,1.64µM*
O=C(CCC(=O)N1CCSc2ccccc21)Nc1ccc(Cl)cc1,5.5%,2.6%,/,5.5%,14.2%,4.8%,/,/,/
COc1ccc(-c2nc(SCC(=O)c3ccc(OC)c(Br)c3)n[nH]2)cc1,27.7%,1.9%,/,5.9%,-6.7%,5.7%,/,/,/
CCOC(=O)c1c(NC(=O)CSc2nc(-c3ccc(OC)cc3)cc(C(F)(F)F)n2)sc(C)c1C,2.5%,-0.7%,/,-0.9%,-1.4%,5.1%,/,/,/
COC1CCC2(C)C(=CCC3C4CC(O)CC4(C)CCC32)C1 (centres undefined),-12.7%,1.4%,-7.2%,0.0%,/,18.5%,/,/,/
C[C@H]1CN([C@@H](C)CO)C(=O)c2cccc(NS(=O)(=O)c3ccc(F)cc3)c2O[C@H]1CN(C)Cc1ccc(Cl)c(Cl)c1,5.17µM*,-5.2%,5.6%,-5.1%,/,-14.8%,3.1%,?,18.4µM*
C=CCOc1ccc(C2=NOC(C(=O)Nc3ccc4c(c3)OCCO4)C2)cc1 (centres undefined),5.8%,-1.7%,14.1%,-0.9%,-1.6%,0.2%,/,/,/
COc1ccc(S(=O)(=O)N2CCCCCC2)cc1NC(=O)Cc1cc(OC)c(OC)c(OC)c1,-24.4%,0.6%,-5.8%[46.1 µM],0.0%,-0.2%,-3.8%,/,/,/

# Reprinted at random: 3 records from the list, in no set order.
SMILES,Nrf2 block,ClpP mod,TCR activator,Nrf2 activator,miR-21 reporter,A549 tox-1,FLuc enzyme inh,A549 tox-2,Nrf2 ARE inh
O=C(Nc1ccc(S(=O)(=O)N2CCOCC2)cc1)c1ccc(CN2CCc3ccccc3C2)cc1,0.82µM*,-17.5%,0.1%,2.5%,?,?,-1.0%,1.7%,1.64µM*
COc1ccccc1NS(=O)(=O)c1cc(NC(=O)CCC(=O)c2cccs2)ccc1Cl,8.2µM*,-0.8%,-1.8%[46.1 µM],0.1%,10.2%,-17.2%,-4.9%,-0.8%,?
O=C(CCC(=O)N1CCSc2ccccc21)Nc1ccc(Cl)cc1,5.5%,2.6%,/,5.5%,14.2%,4.8%,/,/,/
